Data taken from PubChem BioAssay (EPA / NIEHS).
The entries are a selection whose mix differs from that of the whole data set. Activity calls are given as the source filed them. How the source made its calls: active means hit-call score of the fitted dose curve at least 0.9, where 1 is the maximum; inactive means score below 0.9.

Sequences of proteins named here, by UniProt entry; tags and fusion partners are left off.
UniProt P17676, whole entry: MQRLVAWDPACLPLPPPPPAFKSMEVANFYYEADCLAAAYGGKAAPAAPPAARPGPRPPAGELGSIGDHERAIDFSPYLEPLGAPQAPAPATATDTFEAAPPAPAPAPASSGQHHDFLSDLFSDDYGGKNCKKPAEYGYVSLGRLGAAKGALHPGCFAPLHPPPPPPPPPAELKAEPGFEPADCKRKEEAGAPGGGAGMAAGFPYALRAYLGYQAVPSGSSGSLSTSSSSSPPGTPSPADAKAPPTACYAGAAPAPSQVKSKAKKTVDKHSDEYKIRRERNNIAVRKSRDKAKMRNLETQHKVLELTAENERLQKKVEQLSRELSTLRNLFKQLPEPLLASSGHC
UniProt P35869, whole entry: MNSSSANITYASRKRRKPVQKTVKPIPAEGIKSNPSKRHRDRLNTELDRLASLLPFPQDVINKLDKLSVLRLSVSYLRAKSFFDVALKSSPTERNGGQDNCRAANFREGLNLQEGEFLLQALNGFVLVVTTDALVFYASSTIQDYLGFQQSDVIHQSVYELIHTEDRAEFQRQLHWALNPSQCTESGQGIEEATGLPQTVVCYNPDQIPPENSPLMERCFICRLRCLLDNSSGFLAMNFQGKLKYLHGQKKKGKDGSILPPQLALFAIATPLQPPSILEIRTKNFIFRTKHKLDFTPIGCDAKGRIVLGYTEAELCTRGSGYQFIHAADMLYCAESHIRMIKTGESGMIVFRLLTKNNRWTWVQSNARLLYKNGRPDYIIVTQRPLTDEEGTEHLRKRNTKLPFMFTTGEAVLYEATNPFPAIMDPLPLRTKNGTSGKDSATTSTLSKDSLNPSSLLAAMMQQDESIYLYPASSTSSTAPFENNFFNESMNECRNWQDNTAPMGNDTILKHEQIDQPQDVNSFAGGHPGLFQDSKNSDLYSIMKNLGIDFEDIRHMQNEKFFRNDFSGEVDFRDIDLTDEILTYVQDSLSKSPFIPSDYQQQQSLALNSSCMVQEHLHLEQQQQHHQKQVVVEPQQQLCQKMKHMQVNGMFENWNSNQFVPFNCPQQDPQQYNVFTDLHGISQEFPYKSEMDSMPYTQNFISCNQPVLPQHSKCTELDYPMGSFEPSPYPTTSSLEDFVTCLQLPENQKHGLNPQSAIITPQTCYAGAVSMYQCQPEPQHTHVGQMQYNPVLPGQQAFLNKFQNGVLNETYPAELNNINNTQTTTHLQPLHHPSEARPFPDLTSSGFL
UniProt P10276, whole entry: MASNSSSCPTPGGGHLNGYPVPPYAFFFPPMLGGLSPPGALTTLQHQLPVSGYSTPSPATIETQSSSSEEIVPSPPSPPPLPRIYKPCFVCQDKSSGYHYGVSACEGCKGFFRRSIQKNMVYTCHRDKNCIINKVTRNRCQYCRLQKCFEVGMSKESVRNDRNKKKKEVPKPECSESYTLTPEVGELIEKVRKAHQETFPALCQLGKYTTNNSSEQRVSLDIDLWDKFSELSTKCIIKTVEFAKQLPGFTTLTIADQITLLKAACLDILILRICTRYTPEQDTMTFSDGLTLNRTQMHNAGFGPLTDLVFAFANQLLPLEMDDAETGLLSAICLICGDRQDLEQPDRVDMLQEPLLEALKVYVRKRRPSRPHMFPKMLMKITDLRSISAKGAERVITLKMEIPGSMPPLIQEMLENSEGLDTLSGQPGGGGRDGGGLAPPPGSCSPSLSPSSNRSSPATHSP
UniProt Q01094, whole entry: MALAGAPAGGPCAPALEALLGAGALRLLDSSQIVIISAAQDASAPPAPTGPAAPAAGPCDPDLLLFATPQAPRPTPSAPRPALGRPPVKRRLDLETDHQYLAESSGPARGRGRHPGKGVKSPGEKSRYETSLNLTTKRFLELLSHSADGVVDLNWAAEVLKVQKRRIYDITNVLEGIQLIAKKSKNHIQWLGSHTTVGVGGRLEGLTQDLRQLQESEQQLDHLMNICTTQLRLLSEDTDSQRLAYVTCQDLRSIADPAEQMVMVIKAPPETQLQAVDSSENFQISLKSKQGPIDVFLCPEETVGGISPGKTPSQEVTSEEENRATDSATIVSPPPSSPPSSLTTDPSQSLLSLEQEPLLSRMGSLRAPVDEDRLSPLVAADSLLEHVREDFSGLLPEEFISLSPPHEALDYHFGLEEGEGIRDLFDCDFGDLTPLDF
UniProt Q9Y261, whole entry: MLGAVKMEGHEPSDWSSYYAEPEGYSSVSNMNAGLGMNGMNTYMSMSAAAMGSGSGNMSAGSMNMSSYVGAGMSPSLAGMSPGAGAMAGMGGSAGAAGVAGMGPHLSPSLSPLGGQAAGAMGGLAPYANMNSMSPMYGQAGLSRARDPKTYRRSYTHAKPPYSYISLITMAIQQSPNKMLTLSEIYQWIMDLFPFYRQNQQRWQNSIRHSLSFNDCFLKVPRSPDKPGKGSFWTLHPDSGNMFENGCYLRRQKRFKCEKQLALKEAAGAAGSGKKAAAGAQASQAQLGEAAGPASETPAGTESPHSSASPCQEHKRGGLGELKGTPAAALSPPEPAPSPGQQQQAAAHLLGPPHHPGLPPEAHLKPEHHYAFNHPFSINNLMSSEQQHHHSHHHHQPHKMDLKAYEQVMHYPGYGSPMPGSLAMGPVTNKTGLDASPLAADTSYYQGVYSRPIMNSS

How the values were obtained:
[1] = ATG_CRE_CIS: Attagene CIS-FACTORIAL HepG2 Assay for human cAMP Responsive Element (CRE) binding protein 3 (AID 2282926); details: HepG2 CRE cis-reporter, Attagene multiplexed mRNA; actives raise or lower the signal
Outline: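 Multiplexed transcription-unit reporters transfected into HepG2; 24 h dosing; RT-PCR/capillary electrophoresis fluorescence read-out; bidirectional fit vs DMSO.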

[2] = target: CCAAT/enhancer-binding protein beta (Homo sapiens) (UniProt P17676); test: ATG_C_EBP_CIS: Attagene CIS-FACTORIAL HepG2 Assay for human CCAAT/Enhancer Binding Protein (C/EBP) beta (AID 2282927); details: HepG2 Attagene cis-factorial transcription factor reporter; actives raise or lower the signal
Outline: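 HepG2 transiently transfected with multiplexed reporter units under cis-regulatory promoters reporting endogenous C/EBPb activity. After 24 h exposure, reporter mRNA assayed by RT-PCR, fluorescent labelling, HpaI digestion and capillary electrophoresis; bidirectional fitting versus DMSO.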

[3] = ATG_CMV_CIS: Attagene CIS-FACTORIAL HepG2 Assay for human CMV (Internal Marker) (AID 2282928); details: HepG2 CMV promoter reporter, transcription factor profiling; actives raise or lower the signal;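 further: endpoint acts as a background internal control marker rather than a target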
Outline: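 After transient transfection of HepG2 with reporter transcription units driven by cis-regulatory promoters, cells receive test chemical for 24 h. Labeled reporter amplicons, digested with HpaI, are sized and quantified by capillary electrophoresis against DMSO.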

[4] = ATG_DR4_LXR_CIS: Attagene CIS-FACTORIAL HepG2 Assay for human Liver X Receptor (LXR), DR4 submotif (AID 2282929); details: HepG2 Attagene DR4 cis-reporter, mRNA transcription; actives raise or lower the signal
Outline: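 HepG2, transient MRTU transfection, cis-element (DR4) promoter; 24 h compound exposure; total RNA → oligo(dT) RT → PCR → 6-FAM primer extension → HpaI cut → CE. Gain/loss vs DMSO, bidirectional fit.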

[5] = target: Aryl hydrocarbon receptor (Homo sapiens) (UniProt P35869); test: ATG_Ahr_CIS: Attagene CIS-FACTORIAL HepG2 Assay for human Aryl Hydrocarbon Receptor (Ahr) (AID 2282930); details: HepG2 AhR cis-factorial reporter transcription; actives raise or lower the signal
Outline: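 HepG2 cells transiently transfected with cis-element-driven multiplexed reporter units; endogenous AhR activity read as reporter mRNA 24 h after dosing, via RT-PCR, 6-FAM labelling, HpaI digestion and capillary electrophoresis. Bidirectional fit relative to DMSO.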

[6] = ATG_AP_1_CIS: Attagene CIS-FACTORIAL HepG2 Assay for human Activator Protein 1 (AP-1) (AID 2282931); details: HepG2 Attagene cis-factorial AP-1 reporter mRNA; actives raise or lower the signal
Outline: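 Transient MRTU transfection of HepG2 → 24 h chemical treatment → RNA isolation, RT-PCR, 6-FAM labelling, HpaI digest → capillary electrophoresis. Fit: bidirectional, DMSO negative control.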

[7] = ATG_AP_2_CIS: Attagene CIS-FACTORIAL HepG2 Assay for human Activator Protein 2 (AP-2) (AID 2282932); details: HepG2 AP-2 cis-reporter, Attagene transcription factor profiling; actives raise or lower the signal
Outline: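 Multiplexed mRNA reporter assay in HepG2: cis-regulated units report endogenous factor activity after 24 h treatment. Fluorescence from capillary electrophoresis of RT-PCR products gives the signal, with DMSO as baseline.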

[8] = ATG_BRE_CIS: Attagene CIS-FACTORIAL HepG2 Assay for human Bone Morphogenetic Protein (BMP) Response Element (BRE) (AID 2282933); details: HepG2 BMP response element reporter, Attagene transcription factor profiling; actives raise or lower the signal
Outline: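 A HepG2 multiplex reporter system measured inducible reporter mRNA 24 h post-dosing. Detection: RT-PCR, 6-FAM primer extension, HpaI digestion, capillary electrophoresis. Activity fitted bidirectionally relative to DMSO.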

[9] = target: Retinoic acid receptor alpha (Homo sapiens) (UniProt P10276); test: ATG_DR5_RAR_CIS: Attagene CIS-FACTORIAL HepG2 Assay for human Retinoic Acid Receptor Alpha (RARE), DR5 submotif (AID 2282934); details: HepG2 Attagene cis-factorial RARE DR5 reporter, mRNA; actives raise or lower the signal;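 on AC50: reporter responds to endogenous RAR alpha beta and gamma in HepG2 not RARA alone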
[10] = target: Transcription factor E2F1 (Homo sapiens) (UniProt Q01094); test: ATG_E2F_CIS: Attagene CIS-FACTORIAL HepG2 Assay for human E2F Transcription Factor 1 (AID 2282935); details: HepG2 Attagene cis-reporter, E2F reporter RNA transcripts; actives raise or lower the signal
Outline: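 Measures reporter transcript levels via RT-PCR with capillary electrophoresis detection in HepG2 cells harboring cis-regulated reporter units; 24 h post-dose; bidirectional curve fitting with DMSO as baseline.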

[11] = ATG_E_Box_CIS: Attagene CIS-FACTORIAL HepG2 Assay for human Enhancer Box (E-box) (AID 2282936); details: HepG2 E-box cis-reporter transcription, actives raise or lower the signal
Outline: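 First, HepG2 cells receive multiple cis-regulated reporter constructs by transient transfection. Next, chemicals are applied for 24 h. Finally, reporter mRNA is quantified via RT-PCR and capillary electrophoresis, with DMSO as baseline.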

[12] = ATG_M_61_CIS: Attagene CIS-FACTORIAL HepG2 Assay for M61 Transcription Factor (Internal Marker) (AID 2282937); details: HepG2 Attagene CIS-FACTORIAL M61 internal marker reporter; actives raise or lower the signal
Outline: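 Human liver HepG2, transient MRTU transfection (cis promoter elements), 24 h compound. Total RNA → oligo(dT) RT → PCR → FAM label → HpaI → CE. Internal background marker; bidirectional fitting, DMSO = baseline.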

[13] = ATG_EGR_CIS: Attagene CIS-FACTORIAL HepG2 Assay for human Early Growth Response 1 (EGR1) (AID 2282938); details: HepG2 Attagene CIS-FACTORIAL EGR reporter mRNA; actives raise or lower the signal
Outline: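 Transient transfection of human HepG2 with multiple cis-regulated reporter units, chemical exposure 24 h, total RNA isolated. Reverse transcription, PCR, fluorescent labelling and capillary electrophoresis quantify reporter transcripts; activity fitted bidirectionally against DMSO.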

[14] = ATG_M_19_CIS: Attagene CIS-FACTORIAL HepG2 Assay for M19 Transcription Factor (Internal Marker) (AID 2282939); details: HepG2 Attagene CIS-FACTORIAL M19 internal marker reporter; actives raise or lower the signal
Outline: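 Chemical-treated HepG2 (24 h) with MRTU constructs; reporter transcripts detected by fluorescent RT-PCR fragment analysis on capillary electrophoresis. Internal background marker, DMSO as baseline.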

[15] = ATG_ERE_CIS: Attagene CIS-FACTORIAL HepG2 Assay for Estrogen Response Element (ERE) (AID 2282940); details: HepG2 ERE cis-reporter, Attagene RNA transcript; actives raise or lower the signal
Outline: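 Human liver cells (HepG2) bearing transiently transfected, promoter-regulated reporter units were exposed 24 h. Reporter mRNA induction was detected by capillary electrophoresis of labelled RT-PCR products and fitted bidirectionally to DMSO.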

[16] = ATG_Ets_CIS: Attagene CIS-FACTORIAL HepG2 Assay for human Erythroblast Transformation Specific (ETS) (AID 2282941); details: HepG2 ETS cis-reporter transcription, actives raise or lower the signal
Outline: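 Human HepG2 hepatoma cells were transiently transfected with promoter-driven reporter constructs and treated for 24 hours. Reporter transcripts were quantified by RT-PCR with fluorescent primer extension; bidirectional curve fitting used DMSO as reference.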

[17] = target: Hepatocyte nuclear factor 3-beta (Homo sapiens) (UniProt Q9Y261); test: ATG_FoxA2_CIS: Attagene CIS-FACTORIAL HepG2 Assay for human Forkhead box A2 (FOXA2) (AID 2282942); details: HepG2 cis-reporter transcription factor activity, 24 h; actives raise or lower the signal
Outline: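 Transient MRTU transfection of HepG2 liver cells; 24 h treatment; total RNA → oligo(dT) RT → PCR → FAM primer extension → HpaI cut → CE. Bidirectional fit vs DMSO.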

[18] = ATG_FoxO_CIS: Attagene CIS-FACTORIAL HepG2 Assay for human Forkhead box O (FoxO) (AID 2282943); details: HepG2 Attagene cis-reporter, FoxO element, mRNA; actives raise or lower the signal
Outline: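 HepG2 cells transiently transfected with cis-element-driven reporter units report endogenous FoxO activity. After 24 h chemical exposure, reporter mRNA quantified by RT-PCR, fluorescent labeling, HpaI digestion and capillary electrophoresis; bidirectional fit versus DMSO.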

[19] = ATG_GATA_CIS: Attagene CIS-FACTORIAL HepG2 Assay for human GATA Binding Protein (AID 2282944); details: HepG2 GATA cis-element reporter, Attagene multiplex mRNA; actives raise or lower the signal
Outline: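 Transfected cis-reporter HepG2 cells were treated with chemicals for 24 hours. Total RNA was then converted to cDNA, amplified with reporter-specific primers and analysed by fluorescent capillary electrophoresis, using DMSO-treated wells as baseline.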

[20] = APR_HepG2_NuclearSize_72hr: Apredica 72-hour HepG2 Assay for Nuclear Size (AID 2282925); details: high-content imaging, actives raise or lower the signal
Outline: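 HepG2 cells dosed 72 h at 0.39–200 uM (10 concentrations, duplicate) in 0.5% v/v DMSO final. Fixed, Hoechst 33342-stained nuclei imaged; nuclear diameter measured by automated image analysis. Bidirectional fit versus DMSO.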

Measured: AC50

ClCCNCCCl
inactive: [1] | [2] | [3] | [4] | [5] | [6] | [7] | [8] | [9] | [10] | [11] | [12] | [13] | [14] | [15] | [16] | [17] | [18] | [19]

ClCCOP(OCCCl)OCCCl
inactive: [1] | [2] | [3] | [4] | [5] | [6] | [7] | [8] | [9] | [10] | [11] | [12] | [13] | [14] | [15] | [16] | [17] | [18] | [19]

CCOP(=O)(Cl)Cl
inactive: [1] | [2] | [3] | [4] | [5] | [6] | [7] | [8] | [10] | [11] | [12] | [13] | [14] | [15] | [16] | [17] | [18] | [19]

O=[N+]([O-])c1ccccc1[N+](=O)[O-]
active: [3] 60.1 µM | [9] 7.12 µM | [11] 46.7 µM
inactive: [20] | [1] | [2] | [4] | [5] | [7] | [8] | [10] | [12] | [13] | [14] | [16] | [17] | [18] | [19]

CC(C)OP(OC(C)C)OC(C)C
inactive: [1] | [2] | [3] | [4] | [5] | [6] | [7] | [8] | [9] | [10] | [11] | [12] | [13] | [14] | [15] | [16] | [17] | [18] | [19]
